The values below are quoted from earlier work in patent publication US20070043110A1, “Nontoxic potentiation sensitization of ovarian cancer therapy by supplementary treatment with vitamins” (Summa Health System, priority 2001, published 2007).

The conditions of this data set: oral doses of 200 mg/Kg; cited from earlier work.

Turning to `CC1=CC(=O)c2ccccc2C1=O` [Vitamin K3, 2-Methyl-1,4-Naphthoquinone], the mortality result is “No mortality”.
